Here are results for 2 compounds from patent US10077463B2, “Optical selection of cells” (President and Fellows of Harvard College, priority 2015, dated 2018).

This assay has as its system MDCK cells. Description: Photostick of MDCK cells (violet light crosslinking, ACCUTASE development). Format: cell-based, Canine.

Take `[N-]=[N+]=Nc1ccc(F)c([N+](=O)[O-])c1`: the “Retention of illuminated cells after ACCUTASE (in words)” value (4 μM, 407 nm light, ACCUTASE 3 min 37° C.) is recorded as “remaining cells clearly followed”.
`CC[N+]1=C(/C=C/C=C2/N(CCCCCC(=O)NCCNC(=O)CCSSCCNC(=O)C(CCCCNC(=O)CCCCC3SCC4NC(=O)NC43)NC(=O)c3ccc(N=[N+]=N)cc3)c3ccc(S(=O)(=O)O)cc3C2(C)C)C(C)(C)c2cc(S(=O)(=O)O)ccc21` (stereo not drawn) [Cy3-SBED]: the “Illumination light dose yielding high photosticking efficiencies” value (4 μM, 407 nm light, ACCUTASE 37° C. 3 min) is recorded as “above 550 J/cm^2”. The “Concentration yielding good Photostick efficiency” value (0.5-20 μM tested, 407 nm light 825 J/cm^2, ACCUTASE 37° C. 3 min) is recorded as “above 4 μM”.
